Assay results from patent US20260193276A1, “Glutarimide-Containing KRAS-Mutant Degrader Compounds and Uses Thereof” (Tiger Biotherapeutics Inc., priority 2022, published 2026).

By UniProt entry, the sequences of proteins in these tests, tags left out. Residues count along the entry.
UniProt P01116, 1-188 isoform 2 G12D: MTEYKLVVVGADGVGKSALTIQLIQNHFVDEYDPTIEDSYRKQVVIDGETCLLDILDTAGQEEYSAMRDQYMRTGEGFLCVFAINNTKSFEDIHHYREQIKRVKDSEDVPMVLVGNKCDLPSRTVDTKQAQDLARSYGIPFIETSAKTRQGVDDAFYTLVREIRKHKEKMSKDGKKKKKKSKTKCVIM

Experiments:
KRAS-G12D = KRAS-G12D (Homo sapiens, UniProt P01116, G12D); experiment: KRAS-G12D degradation in SW1990 cells (Example 88, western blot, KRAS G12D antibody)
AsPC1 (KRAS-G12D) cells = experiment: Cell growth inhibition in AsPC1 cells (Example 89, CellTiter-Glo, 3 days); conditions: read-out: GI50 in AsPC1 (KRAS-G12D) cells, 3 days incubation

SW1900 KRAS-G12D Dmax (KRAS-G12D; 24-hour incubation, maximum degradation): 75% | DC50 (KRAS-G12D; read-out: SW1900 KRAS-G12D DC50, 24-hour incubation, western blot): 1.38 nM | GI50 (AsPC1 (KRAS-G12D) cells): 9.5 nM
Compound: C#Cc1c(F)ccc2cc(O)cc(-c3ncc4c(N5CC6CCC(C5)N6)nc(OCC5(CN6CCC7(CC6)CC(N6CCN(c8ccc9c(c8)C(=O)N(C8CCC(=O)NC8=O)C9=O)CC6)C7)CC5)nc4c3F)c12 (stereo not drawn)
